In ChEMBL document CHEMBL6134873, “Identification of Novel Cyclobutane-Based Derivatives as Potent Acetyl-CoA Carboxylase Allosteric Inhibitors for Nonalcoholic Steatohepatitis Drug Discovery” (J Med Chem, 2025):

How the values were obtained:
Format in all cases: functional, organism-based
Rattus norvegicus [1] = test: Anti-NASH activity in Sprague-Dawley rat model of DEN-induced liver fibrosis assessed as reversal of DEN-induced ALT level administered orally once daily treated for 4 weeks by ELISA; settings: dose 3-10 mg/kg, route po
Rattus norvegicus [2] = test: Anti-NASH activity in Sprague-Dawley rat model of DEN-induced liver fibrosis assessed as reduction in fibrotic collagen area at 3 to 10 mg/kg, po qd treated for 4 weeks by sirus red staining based analysis; settings: dose 3-10 mg/kg
Rattus norvegicus [3] = test: Anti-NASH activity in Sprague-Dawley rat model of DEN-induced liver fibrosis assessed as reduction in DEN-induced pathological change at 3 to 10 mg/kg, po qd treated for 4 weeks by sirus red staining based analysis; settings: dose 3-10 mg/kg
Rattus norvegicus [4] = test: Anti-NASH activity in Sprague-Dawley rat model of DEN-induced liver fibrosis assessed as reduction in Col1A1 mRNA expression at 3 to 10 mg/kg, po qd treated for 4 weeks by qPCR analysis; settings: dose 3-10 mg/kg
Rattus norvegicus [5] = test: Anti-NASH activity in Sprague-Dawley rat model of DEN-induced liver fibrosis assessed as reversal of DEN-induced GGT level administered orally once daily treated for 4 weeks by ELISA; settings: dose 3-10 mg/kg, route po
Rattus norvegicus [6] = test: Anti-NASH activity in Sprague-Dawley rat model of DEN-induced liver fibrosis assessed as reduction in alpha-SMA expression at 3 to 10 mg/kg, po qd treated for 4 weeks by IHC analysis; settings: dose 3-10 mg/kg
Rattus norvegicus [7] = test: Anti-NASH activity in Sprague-Dawley rat model of DEN-induced liver fibrosis assessed as reversal of DEN-induced AST level administered orally once daily treated for 4 weeks by ELISA; settings: dose 3-10 mg/kg, route po
Rattus norvegicus [8] = test: Anti-NASH activity in Sprague-Dawley rat model of DEN-induced liver fibrosis assessed as reduction in alpha-SMA mRNA expression at 3 to 10 mg/kg, po qd treated for 4 weeks by qPCR analysis; settings: dose 3-10 mg/kg
Rattus norvegicus [9] = test: Anti-NASH activity in Sprague-Dawley rat model of DEN-induced liver fibrosis assessed as reversal of DEN-induced TBIL level administered orally once daily treated for 4 weeks by ELISA; settings: dose 3-10 mg/kg, route po

Measured: Activity

COc1ccccc1[C@H](Cn1c(=O)n([C@H]2C[C@@](C)(C(=O)O)C2)c(=O)c2c(C)c(-c3ncco3)sc21)OC1CCOCC1
active: Rattus norvegicus [1] Dose-dependent-effect | Rattus norvegicus [2] | Rattus norvegicus [3] | Rattus norvegicus [5] Dose-dependent-effect | Rattus norvegicus [6] | Rattus norvegicus [7] Dose-dependent-effect | Rattus norvegicus [9] Dose-dependent-effect
Active; Activity Better Than Nd-630: Rattus norvegicus [4] | Rattus norvegicus [8]

Active and inactive are the calls of the source.
